# In the library only some 1.8% were active in any assay of this set; here they are far more common.
# Cneo AK release = causes C. neoformans cell lysis. lysis activity, % at 15 µM. 0.2% of 360,000 active. adenylate kinase release luminescence, 4 h; normalised: neutral wells 0, clomiphene wells 100;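 active means mean lysis activity across replicates of at least 80%, whatever share of replicates individually reach that level; inactive means mean lysis activity below 80%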
#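 Assay system: Cryptococcus neoformans yeast cells / Dosing: single-point compound dose / Timing: 4 h at 37 °C static, read 1 h later / Measured by: luminescence of released adenylate kinase using an AK detection reagent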
# DENV2 CPE rescue = DENV2-induced cell death inhibition | DENV2-infected cells, cytopathic effect rescue, plate reader | CPE inhibition, % at 9.99 µM | 1.7% of 350,000 active; in the data active means CPE inhibition above about 20%, passing the limit was not always enough; inconclusive means no clear call, values can overlap the other calls; tested in BHK-21 cells;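 further: 0% = median of neutral control wells and 100% = median of positive control wells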
# E-selectin induc = E-selectin induction on HUVECs; P16581; HUVEC E-selectin immunofluorescence imaging; normalized: neutral wells 0, TNF-alpha wells 100; activation, % at 7.58 µM; 0.37% of 260,000 active;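 active means mean E-selectin-positive cell signal at least 10% of the positive control, reached in at least 60% of replicates, without over 20% cell loss; inconclusive means no rule given, readout overlaps actives, possibly toxicity-flagged; inactive means the rest, including those meeting only one limit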
#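 material = human umbilical vein endothelial cells (HUVEC), E-selectin induction | quantity = 3,000 cells/well | medium = EGM-2 growth medium on 0.1% gelatin-coated wells | technique = immunofluorescence imaging | read-out basis = % PE-positive cells | control set = TNF-alpha positive control, DMSO neutral control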
# Yeast UUG start = modulators of yeast start codon fidelity, primary screen, whole organism, S. cerevisiae, single point, plate reader; S. cerevisiae UUG-firefly luciferase reporter, luminescence/redox ratio; activity score, % at 18.7 µM; actives 0.13% (n = 350,000); AID 602363, 2012;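 active = replicate mean at a twofold rise or more, about +100% in these data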;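 also: firefly luciferase made from a UUG start codon reports start codon fidelity; reporter light over untreated wells divided by growth signal over untreated wells; some hits fall short of that in this replicate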
# * marks the source's active call; other numbers are inactive results; ? = inconclusive; . = no result.
# Preview:
1	CC(C)=NNC(=O)CN1C(=O)NC2NC(=O)NC21 (stereo not given)
2	CCC(C)NC(=O)CN1C(=O)NC2NC(=O)NC21 (stereo not given)
entry no.,1,2
Cneo AK release,1.5,.
DENV2 CPE rescue,33.7*,-4.7
E-selectin induc,.,5.2
Yeast UUG start,-7.8,.

# Main list, repeating the preview:
1	CC(C)=NNC(=O)CN1C(=O)NC2NC(=O)NC21 (stereo not given)
2	CCC(C)NC(=O)CN1C(=O)NC2NC(=O)NC21 (stereo not given)
3	COCC(=O)N[C@H]1CC[C@H](CC(=O)NCc2ccc(Cl)cc2)O[C@@H]1CO
4	COc1ccc(NC(=O)COc2cccc3c2CCNC3=O)cc1
5	COc1cccc(NC(=O)COc2cccc3c2CCNC3=O)c1
6	Cc1cccc(C)c1-n1nnnc1-c1nc2ccccc2[nH]c1=O
7	Cc1cc2nc(-c3nnnn3-c3c(C)cccc3C)c(=O)[nH]c2cc1C
8	C[C@H]1CN([C@@H](C)CO)C(=O)Cc2cc(NS(=O)(=O)c3ccc(F)cc3)ccc2O[C@@H]1CN(C)S(C)(=O)=O
9	C[C@@H]1CN([C@@H](C)CO)C(=O)Cc2cc(NS(=O)(=O)c3ccc(Cl)cc3)ccc2O[C@@H]1CN(C)S(=O)(=O)c1ccc(Cl)cc1
10	C[C@H](CO)N1C[C@H](C)[C@@H](CN(C)CC2CCCCC2)Oc2ccc(NS(=O)(=O)c3ccc(Cl)cc3)cc2CC1=O
entry no.,1,2,3,4,5,6,7,8,9,10
Cneo AK release,1.5,.,-1.8,.,-0.5,.,.,3.3,2.0,-10.8
DENV2 CPE rescue,33.7*,-4.7,-1.9,-3.6,27.6*,9.6,-2.9,46.1*,47.0*,7.9
E-selectin induc,.,5.2,-0.1,3.1,.,49.2*,6.7,0.0,0.8,-11.1
Yeast UUG start,-7.8,.,-0.6,.,-4.0,.,.,-3.1,-2.4,-0.3

11	C[C@@H]1CN([C@H](C)CO)C(=O)Cc2cc(NS(=O)(=O)c3ccc(F)cc3)ccc2O[C@@H]1CN(C)S(=O)(=O)c1ccc(Cl)cc1
12	C[C@@H]1CN([C@H](C)CO)C(=O)Cc2cc(NS(=O)(=O)c3ccc(Cl)cc3)ccc2O[C@@H]1CN(C)CC1CCCCC1
13	COc1ccc(S(=O)(=O)Nc2ccc3c(c2)C(=O)N([C@@H](C)CO)C[C@@H](C)[C@H](CN(C)C(=O)Nc2cccc4ccccc24)OCCCC[C@H](C)O3)cc1
14	C[C@@H]1CN([C@@H](C)CO)C(=O)c2cc(-c3ccncc3)cnc2O[C@H]1CN(C)Cc1cccnc1
15	Cc1noc(C)c1S(=O)(=O)Nc1ccc2c(c1)C(=O)N([C@@H](C)CO)C[C@H](C)[C@H](CN(C)S(=O)(=O)c1c(C)noc1C)O2
16	COc1ccc(S(=O)(=O)Nc2ccc3c(c2)OC[C@@H](C)N(C(=O)NC(C)C)C[C@@H](C)[C@H](OC)CN(C)C3=O)cc1
17	CCCC#Cc1ccc([C@@H]2[C@@H](CO)N3CCCCN(Cc4cccnc4)C[C@H]23)cc1
18	CC(=O)N1[C@@H]2c3ccc(-c4ccccc4)c(=O)n3C[C@@H]2[C@@H](CO)[C@@H]1C(=O)NCc1ccccc1Cl
19	C[C@H](CO)N1C[C@H](C)[C@@H](CN(C)S(=O)(=O)c2ccc(F)cc2)Oc2ccc(NS(C)(=O)=O)cc2CC1=O
20	C[C@@H]1CN([C@@H](C)CO)C(=O)Cc2cc(NS(=O)(=O)c3ccc(F)cc3)ccc2O[C@H]1CN(C)S(=O)(=O)c1ccc(Cl)cc1
entry no.,11,12,13,14,15,16,17,18,19,20
Cneo AK release,-2.6,-0.2,-1.0,-1.3,.,-66.6,4.4,-5.2,2.5,-0.3
DENV2 CPE rescue,-7.6,48.9*,-10.8,3.6,.,-2.2,5.6,?,9.7,-7.0
E-selectin induc,69.4*,-9.3,0.1,-0.3,-0.2,-0.2,-0.1,-0.5,311.4*,33.9*
Yeast UUG start,-0.7,1.0,-2.2,-11.0,.,4.0,-18.3,.,3.4,11.6

21	C[C@@H]1CN([C@@H](C)CO)C(=O)Cc2cc(NS(=O)(=O)c3ccc(F)cc3)ccc2O[C@@H]1CN(C)S(=O)(=O)c1ccc(Cl)cc1
22	C[C@@H]1CN([C@H](C)CO)C(=O)Cc2cc(NS(=O)(=O)c3ccc(Cl)cc3)ccc2O[C@H]1CN(C)S(=O)(=O)c1ccc(F)cc1
23	C[C@@H]1CN([C@@H](C)CO)C(=O)Cc2cc(NS(=O)(=O)c3ccc(F)cc3)ccc2O[C@@H]1CN(C)S(=O)(=O)c1ccc(F)cc1
24	C[C@H]1CN([C@@H](C)CO)C(=O)Cc2cc(NS(=O)(=O)c3ccc(F)cc3)ccc2O[C@H]1CN(C)S(=O)(=O)c1ccc(Cl)cc1
25	C[C@H]1CN([C@@H](C)CO)C(=O)Cc2cc(NS(C)(=O)=O)ccc2O[C@@H]1CN(C)S(=O)(=O)c1ccc(F)cc1
26	COc1ccc(NC(=O)N(C)C[C@H]2Oc3ccc(NS(=O)(=O)c4ccccc4)cc3CC(=O)N([C@H](C)CO)C[C@H]2C)cc1
27	COc1ccc2c3c([nH]c2c1)[C@H](CO)N(S(C)(=O)=O)CC31CCN(C(=O)Cc2cccnc2)CC1
entry no.,21,22,23,24,25,26,27
Cneo AK release,1.0,49.8,1.5,0.3,-3.8,.,.
DENV2 CPE rescue,1.0,5.8,-6.4,-3.2,-14.0,-6.1,-2.5
E-selectin induc,101.8*,-0.8,-0.3,198.3*,6.9,0.0,0.4
Yeast UUG start,-11.9,19.0,17.3,4.3,10.4,.,.

# Bioassay records as filed in PubChem BioAssay.
